The source of these data is patent US8263074B2, “Fibroblast growth factor receptor-1 inhibitors and methods of treatment thereof” (ImClone LLC, priority 2003, dated 2012).

Amino acid sequences for entries named in this document (tags omitted). Residues count along the entry.
UniProt P21802, 481-770 limits assumed: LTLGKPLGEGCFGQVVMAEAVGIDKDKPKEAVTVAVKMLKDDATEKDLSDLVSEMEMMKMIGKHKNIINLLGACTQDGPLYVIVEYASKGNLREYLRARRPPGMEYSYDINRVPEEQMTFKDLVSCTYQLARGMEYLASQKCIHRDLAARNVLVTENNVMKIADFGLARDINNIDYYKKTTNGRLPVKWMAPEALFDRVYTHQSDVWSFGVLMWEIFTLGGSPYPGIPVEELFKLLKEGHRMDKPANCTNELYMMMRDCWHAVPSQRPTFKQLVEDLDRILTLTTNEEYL
UniProt P22455, 467-755 limits assumed: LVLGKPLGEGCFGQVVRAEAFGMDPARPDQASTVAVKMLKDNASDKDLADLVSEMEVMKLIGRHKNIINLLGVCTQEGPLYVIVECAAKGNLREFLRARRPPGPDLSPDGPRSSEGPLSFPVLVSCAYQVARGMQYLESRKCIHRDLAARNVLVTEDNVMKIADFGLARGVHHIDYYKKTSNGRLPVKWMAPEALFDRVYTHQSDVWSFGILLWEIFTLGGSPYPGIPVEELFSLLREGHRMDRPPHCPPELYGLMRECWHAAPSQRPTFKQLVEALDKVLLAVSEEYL
UniProt P11362, 478-767 limits assumed: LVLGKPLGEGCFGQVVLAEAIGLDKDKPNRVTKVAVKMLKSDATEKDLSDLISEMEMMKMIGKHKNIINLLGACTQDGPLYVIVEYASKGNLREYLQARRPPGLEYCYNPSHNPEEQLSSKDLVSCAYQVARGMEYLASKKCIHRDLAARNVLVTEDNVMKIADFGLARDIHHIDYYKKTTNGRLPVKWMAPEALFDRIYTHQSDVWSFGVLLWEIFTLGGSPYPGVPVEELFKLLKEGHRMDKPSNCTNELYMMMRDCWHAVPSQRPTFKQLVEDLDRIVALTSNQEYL
UniProt P22607, 472-761 limits assumed: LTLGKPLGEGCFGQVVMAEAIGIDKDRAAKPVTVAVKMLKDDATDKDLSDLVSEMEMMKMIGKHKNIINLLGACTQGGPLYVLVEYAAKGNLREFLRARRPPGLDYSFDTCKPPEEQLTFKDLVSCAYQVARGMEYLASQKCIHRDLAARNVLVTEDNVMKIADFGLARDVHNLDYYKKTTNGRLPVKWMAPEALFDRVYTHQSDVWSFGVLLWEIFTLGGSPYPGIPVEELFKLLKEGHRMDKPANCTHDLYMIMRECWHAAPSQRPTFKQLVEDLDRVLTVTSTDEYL

In general, IC50 refers to the concentration that inhibits the measured activity by half.

Assay in all cases: FGFR kinase enzymatic assay (polyE-Y phosphorylation)
The target of one assay is FGFR-2 (Homo sapiens, UniProt P21802). The following applies: read-out: IC50, FGFR-2 kinase enzymatic activity; in vitro enzymatic assay.
The target in a further assay is FGFR-4 (Homo sapiens, UniProt P22455). The class given is biochemical. The conditions noted are these: read-out: IC50, FGFR-4 kinase enzymatic activity; in vitro enzymatic assay.
The target of a further assay is FGFR-1 (Homo sapiens, UniProt P11362). Type of assay: biochemical. The conditions noted are these: read-out: IC50, FGFR-1 kinase enzymatic activity; in vitro enzymatic assay.
The target of a further assay is FGFR-3 (Homo sapiens, UniProt P22607). The class given is biochemical. The conditions noted are these: read-out: IC50, FGFR-3 kinase enzymatic activity; in vitro enzymatic assay.

Consider `COc1cc(OC)cc(-c2cc3cnc(N)nc3nc2NC(=O)NC(C)(C)C)c1`, for which the IC50 on FGFR-2 is 0.06 µM; on FGFR-4, 0.44 µM; on FGFR-1, 0.018 µM; on FGFR-3, 0.02 µM.
